The values below come from patent US9850225B2, “Compounds useful as immunomodulators” (BRISTOL-MYERS SQUIBB COMPANY, priority 2014, dated 2017).

Amino acid sequences for entries named in this document (tags omitted). Chains listed by the source or under a name are the forms on record and can include a tag or linker. Residues count along the entry.
UniProt Q9NZQ7, 18-239 with tags or gaps limits assumed: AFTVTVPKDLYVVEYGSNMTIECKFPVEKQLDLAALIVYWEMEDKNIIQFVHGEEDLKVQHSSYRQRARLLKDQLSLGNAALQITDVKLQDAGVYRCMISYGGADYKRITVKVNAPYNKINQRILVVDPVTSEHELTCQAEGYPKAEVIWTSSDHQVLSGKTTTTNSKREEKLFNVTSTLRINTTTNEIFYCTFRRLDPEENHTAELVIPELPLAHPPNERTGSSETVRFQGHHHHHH

For this assay, the target named is PD-1/PD-L1 interaction (PD-1-Ig / PD-L1-His) (Homo sapiens (Human), UniProt Q9NZQ7). Put plainly: PD-1/PD-L1 Homogenous Time-Resolved Fluorescence (HTRF) binding assay. The conditions noted are these: read-out: Range or IC50. (In TR-FRET formats the signal depends on donor and acceptor labels being close together.)
Where [1] appears, read: PD-1/PD-L1 HTRF binding assay, value given as range class.

Where two headings read alike, the source gives them in different places.

A word on the IC50: it is the concentration that inhibits the measured activity by half. For the compound `CC(=O)NCCNCc1ccc(OCc2cccc(-c3ccccc3)c2C)cc1OCc1cccc(C(F)(F)F)c1F`, the IC50 under setting [1] lay in the range of 100 to 20000 nM.

With `CC(=O)NCCNCc1ccc(OCc2cccc(-c3ccccc3)c2C)cc1OCc1cc(C)on1`, the IC50 lay within 100 to 20000 nM.

In the case of `Cc1c(COc2cc(OCc3cncc(C#N)c3)c(CN3CC(O)C(O)[C@H]3C(=O)O)cc2Cl)cccc1-c1ccc2c(c1)OCCO2` (single isomer, unassigned), under setting [1], the IC50 is 0.6 to 10 nM.
